Experimental findings from patent publication US5324832A, “Muscarinic antagonists” (priority 1991, dated 1994) are described below.

Chains of the proteins cited; added tags and fusions are not shown. Lines headed by an entry give the natural chain unless they say otherwise; changes in a name come on top.
UniProt P08482: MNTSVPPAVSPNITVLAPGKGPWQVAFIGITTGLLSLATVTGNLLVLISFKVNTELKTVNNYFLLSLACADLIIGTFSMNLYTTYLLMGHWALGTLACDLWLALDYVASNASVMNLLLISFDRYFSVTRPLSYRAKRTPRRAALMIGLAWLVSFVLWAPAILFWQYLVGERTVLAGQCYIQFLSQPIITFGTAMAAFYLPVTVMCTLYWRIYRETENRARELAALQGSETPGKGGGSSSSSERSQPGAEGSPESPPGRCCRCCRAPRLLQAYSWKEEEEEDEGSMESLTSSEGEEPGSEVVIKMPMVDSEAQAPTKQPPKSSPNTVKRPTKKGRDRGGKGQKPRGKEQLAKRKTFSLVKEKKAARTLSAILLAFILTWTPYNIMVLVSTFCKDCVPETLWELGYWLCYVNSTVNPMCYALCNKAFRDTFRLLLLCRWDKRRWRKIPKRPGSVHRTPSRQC

This assay deals with m1 muscarinic receptors (Rattus norvegicus, UniProt P08482). Type of assay: binding. Here is the method: To assay for irreversible inhibition in rat brain membranes, Scatchard analyses before and after treatment of the membranes with 26 were compared. Even a very […].
Aliquots of brain membranes were incubated with 1.0 mM of freshly dissolved 26 in phosphate-buffered saline (pH 8.0) for 60 min at room temperature, then centrifuged at 15,000 rpm for 10 min.
The resulting pellet was resuspended in 25 mL of fresh phosphate-buffered saline (pH 7.2) and centrifuged as above.

Consider `C[N+]1(C)C2CC(OC(=O)C(CO)c3ccccc3)CC1C1OC12` (stereo not shown) [[^3 H]NMS, [^3 H]N-methylscopolamine, reference compound], for which the “Bmax of [3H]NMS” value is given as 0.74 pmol/mg protein.
